Assay [1] relates to PI3K-γ (RAW264.7). The experiment in a line: p-AKT HTRF assay, PI3K-γ in RAW 264.7 cells stimulated with C5a. The settings on record: Mus musculus, RAW264.7, read-out: p-AKT HTRF IC50 PI3K-γ (RAW264.7). Format: cell-based, murine. On the procedure: (§1) Cells were incubated at 37° C. in a 5% CO2 atmosphere overnight. […] Medium was then aspirated and 50 μL/well of lysis buffer was added. Plates were shaked for 45 minutes at room temperature and then 16 ul/well of lysate was transferred to 384-well plate. 4 ul/well of premixed antibody was added to the wells. The plate was centrifuged at 1000 rpm at RT for 1 minute and then incubated for 4 hours at 22° C., and Phospho-AKT (ser473) Kit was used for detection.

The subject of assay [2] is PI3K-β (786-O). Briefly: p-AKT HTRF assay, PI3K-β in 786-O cells. The format is cell-based. The settings on record: Homo sapiens, 786-0, read-out: p-AKT HTRF IC50 PI3K-β (786-O). The method, then:
as §1
(In general: Time-resolved FRET reads energy transfer from a long-lived donor to a nearby acceptor.)

Assay [3] concerns PI3K-δ (RAJI). Briefly: p-AKT HTRF assay, PI3K-δ in RAJI cells stimulated with anti-IgM. The format is cell-based. The settings on record: Homo sapiens, read-out: p-AKT HTRF IC50 PI3K-δ (RAJI). The method, then: as §1
Assay [4] has as its system PI3K-α (SKOV3). Briefly: p-AKT HTRF assay, PI3K-α in SKOV3 cells. The format is cell-based. The settings on record: Homo sapiens, SK-OV-3, read-out: p-AKT HTRF IC50 PI3K-α (SKOV3). The method, then:
as §1

By IC50 is commonly meant the concentration that inhibits the measured activity by half.

As to `Cc1nnc(-c2c(N)ncnc2N[C@@H](C)c2nc3cccc(C#CCO)c3c(=O)n2-c2ccccc2)o1` [Example 35, (S)-2-(1-((6-amino-5-(5-methyl-1,3,4-oxadiazol-2-yl)pyrimidin-4-yl)amino)ethyl)-5-(3-hydroxyprop-1-yn-1-yl)-3-phenylquinazolin-4(3H)-one], the IC50 stood at 1180 nM in assay [1], 482 nM in assay [2], 11.2 nM in assay [3] and 1720 nM in assay [4].

The record behind these values is patent US10751339B2, “Substituted aminopyrimidine compounds and methods of use” (SUNSHINE LAKE PHARMA CO., LTD., priority 2018, dated 2020).
